A549 tox: A549 cytotoxicity, counter-screen for Nrf2 inhibitors. actives 0.16% (n = 390,000). Potency, µM (titrated, usually from 46 µM), hits mostly inhibitors. A549 ARE-Fluc cells, CellTiter-Fluor viability, 18-24 h
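A549 ARE_Fluc cells in 5% FBS OPTI-MEM were exposed to compounds in concentration-response for 18-24 h at 37 deg C. Viability was read by CellTiter-Fluor fluorescence (Ex 405/Em 525) after 30 min, before the luciferase read.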
miR-21 reporter: raises the signal of a miR-21 reporter | HeLa miR-21 FLuc reporter, luciferase, 48 h | 340,000 tested, under 10 active | Potency, µM (titrated, usually from 38.3 µM); active = well fitted rising curve with a large enough effect; inconclusive = small, poorly fitted or top-dose-only effect; inactive = no such curve, though single readings can be large or run the other way;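 further: miR-21 action dims this reporter so a rising signal means less miR-21 action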
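Using DMEM plus 10% FBS, HeLa miR-21-FLuc cells are incubated with test compounds (final up to about 40uM) for 48 hours; firefly luciferase signal is then imaged following reagent-mediated lysis.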
Nrf2 block: blocks Nrf2 signaling; A549 ARE-Fluc reporter, luciferase luminescence, 18-24 h; Potency, µM (doses to about 46 µM), usual class: inhibitors; actives 2.1% (n = 360,000); AID 504444; note: nearly all actives have a fitted effect of over 60% in size
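Two sequential reads on A549 ARE_Fluc cells exposed to compound for 18-24 h: a CellTiter-Fluor fluorescence read for viability, then a luciferase luminescence read for Nrf2/ARE activity.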
GALK inhibitor: inhibitors of human galactokinase; P51570; Purified GALK, Kinase-Glo residual ATP luminescence; Potency, µM (doses to about 57.5 µM), hits mostly inhibitors; actives 0.007% (n = 270,000); AID 1868
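Compounds were pin-transferred into ATP buffer (35 uM final), then GALK plus galactose (5 nM, 100 uM final) was added. After 1 h at room temperature, Kinase-Glo Plus was added and luminescence read after 10 min.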
Nrf2 ARE act: activates Nrf2 signaling; Potency, µM (titrated, usually from 46.1 µM), most hits filed as activators; actives 0.31% (n = 410,000); AREc32 ARE-luciferase reporter (MCF7-derived line), luminescence, 24 h; note: nearly all actives have a fitted effect of over 65% in size
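Luminescent ARE reporter assay in AREc32_Fluc cells: overnight plating at 37 deg C, 24 hr compound incubation, Steady-Glo added, 30 min RT before reading.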
PI4K2A block: blocks human PI4K2A kinase activity. Q9BTU6. purified PI4K2A, ADP-Glo luminescence, 1 h; stronger effect = lower value. activity change, negative = inhibition, % at 76.9 µM. actives 0.13% (n = 420,000); in the data active = activity change below about -50%; inconclusive = mostly about -30% to -49%
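ADP-Glo luminescence measured ADP generated by PI4K2A enzyme (4 ug/mL before mixing) with 1.2 mM PI substrate (pre-mix) and 300 microM ATP (pre-mix). Tris pH7.5 buffer with MgCl2, Triton X-100; 1 h reaction at ambient temperature.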
A number is an active result; i = inactive; ? = inconclusive; nt = no result given. An excerpt weighted towards active compounds, which were near 2.2% of everything screened. Unless noted, calls come from the whole dose curve; as a rule, active = well fitted curve in the direction sought with a large enough effect; inconclusive = small, poorly fitted or top-dose-only effect, or another doubt; inactive = no such curve, though single readings can be large; an effect the other way counts as inactive or inconclusive.

SMILES | A549 tox | miR-21 reporter | Nrf2 block | GALK inhibitor | Nrf2 ARE act | PI4K2A block
O=C(Nc1nc2ccccc2[nH]1)c1ccc(OC(F)F)cc1 | i | i | ? | i | i | i
O=C(Nc1nc2ccccc2[nH]1)c1ccccc1F | i | ? | ? | i | i | -79.9
Cc1cc(N2CCC[C@@H]2C)nc2ccccc12 | nt | nt | nt | nt | nt | i
Cc1cccc(CSc2cccc3cccnc23)c1 | i | ? | i | i | 22.4µM | i
Cc1nc(C)c(-c2ccc(SCC(=O)Nc3ccccc3F)nn2)s1 | i | ? | nt | nt | i | i
Cc1nc(C)c(-c2ccc(SCC(=O)Nc3ccc(F)cc3F)nn2)s1 | i | i | 20.6µM | i | i | i
O=C(c1ccccc1C(F)(F)F)N1CCC(Oc2cccnc2)CC1 | nt | nt | nt | nt | nt | i
O=C(NCCc1nc2ccccc2n1Cc1ccccc1F)c1ccc(F)cc1 | ? | i | 23.1µM | nt | i | i
Cc1ccc(NS(=O)(=O)c2cc3c(cc2F)NC(=O)CC3)cc1C | i | nt | i | nt | nt | nt
CCc1nc(N)c(C#N)c(-c2ccc(F)cc2)c1C | i | i | ? | i | i | i
Cc1ccc2c(n1)sc1c(-c3ccc(Br)cc3)c(C#N)c(N)nc12 | ? | i | 20.6µM | nt | i | i
CCOC(=O)c1ccc(N2C(=O)C3C(C2=O)C(C(=O)c2ccc(Cl)cc2)N2CCCC32)cc1 (stereo unspecified) | i | i | i | i | 14.1µM | i
CCOC(=O)c1ccc(N2C(=O)C3CC=CCC3C2=O)cc1 (stereo unspecified) | i | i | i | i | i | i
CSCCCNc1nc(C)nc2c1nnn2Cc1ccccc1 | nt | nt | nt | nt | nt | i
Cc1ccc(-c2ccc(/C=N\NC(=O)c3cc4c(ccc5ccccc54)o3)o2)cc1[N+](=O)[O-] | ? | i | 23.1µM | i | i | i
Cc1ccc([N+](=O)[O-])cc1-c1ccc(/C=N/NC(=O)c2cc3c(ccc4ccccc43)o2)o1 | i | i | i | i | i | i
Cc1ccc(NC(=O)c2ccc(CN3CCc4ccccc4C3)cc2)cc1 | i | i | ? | i | i | i
O=C(Nc1ccc(S(=O)(=O)N2CCCCC2)cc1)c1ccc(CN2CCc3ccccc3C2)cc1 | i | ? | 0.326µM | i | i | i
O=C(Nc1ccccc1)c1ccc(CN2CCc3ccccc3C2)cc1 | i | i | i | i | i | i
O=C(Nc1cccnc1)c1ccc(CN2CCc3ccccc3C2)cc1 | i | i | 13µM | i | i | i
Cc1cc(C)cc(NC(=O)c2ccc(CN3CCc4ccccc4C3)cc2)c1 | i | i | 14.6µM | i | i | i
Nc1ccccc1N1C(=O)c2cccc3cccc(c23)C1=O | i | nt | ? | nt | 8.91µM | i
COCC#Cc1ccc(CC[C@H]2O[C@H]3CC[C@H](CO)O[C@H]3C[C@H]2n2cc(C(C)(C)O)nn2)cc1 | nt | nt | nt | nt | nt | i
O=[N+]([O-])c1ccc(C(=S)N2CCN(c3ccc(F)cc3)CC2)cc1 | i | i | 18.4µM | i | i | i
O=[N+]([O-])c1ccc(N2CCN(C(=S)NCc3ccc(Cl)cc3)CC2)cc1 | ? | i | 16.4µM | i | i | i
SMILES | A549 tox | miR-21 reporter | Nrf2 block | GALK inhibitor | Nrf2 ARE act | PI4K2A block
C[N+]1=C2N[C@@H](c3ccccc3)CC(=O)N2/C(=C\c2ccccc2)[C@@H]1Cc1ccccc1 | nt | nt | nt | nt | nt | i
O=c1c2ccccc2n(Cc2ccccc2)n1[C@@H](Cc1ccccc1)Cn1cc(-c2ccc(-c3ccccc3)cc2)nn1 | nt | nt | nt | nt | nt | i
Cc1ccc(SCc2nc(-c3ccc(C(=O)NCC(C)c4ccccc4)cc3)oc2C)cc1 (stereo unspecified) | i | ? | 9.2µM | nt | i | i
CN(C)S(=O)(=O)c1cccc(C(=O)N/N=C\c2cccc(C#N)c2)c1 | nt | nt | nt | nt | nt | i
COc1ccc(C(=O)NCCCNC(=O)c2cccnc2)cc1OC | i | i | 10.3µM | i | i | i
CC(C)(C)c1ccc(C(=O)NCCCNC(=O)c2cccnc2)cc1 | i | i | 8.2µM | i | i | i
CCOc1cc(CCNC(=O)c2cc3sccc3n2CC)ccc1OC | nt | nt | nt | nt | nt | i
COc1c(C)cccc1C(=O)Nc1ccc(-c2nc3ccccc3s2)c(Cl)c1 | i | i | 25.9µM | nt | i | i
CCOc1ccc(C(=O)Nc2ccc(-c3nc4ccccc4s3)c(C)c2)cc1OCC | i | i | nt | nt | i | i
C/C(=N/NC(=O)c1ccoc1C)c1cccs1 | nt | nt | nt | nt | nt | i
CCCC(=O)NC(c1cccs1)c1cc([N+](=O)[O-])c2cccnc2c1O (stereo unspecified) | ? | i | 20.6µM | i | i | i
O=C(CCc1ccccc1)NC(c1cccs1)c1cc(Cl)c2cccnc2c1O (stereo unspecified) | ? | ? | 16.4µM | i | i | i
CCC(=O)NC(c1cccs1)c1cc(Cl)c2ccccc2c1O (stereo unspecified) | i | nt | i | nt | i | i
CC(=O)NC(c1ccccc1)c1cc([N+](=O)[O-])c2cccnc2c1O (stereo unspecified) | ? | i | 14.6µM | i | i | i
CCC(=O)NC(c1cccs1)c1cc([N+](=O)[O-])c2cccnc2c1O (stereo unspecified) | ? | i | ? | i | i | i
O=C(NC1CCCCN(Cc2ccc(Cl)cc2)C1=O)c1ccc(-c2ccccc2)cc1 (stereo unspecified) | nt | nt | nt | nt | nt | i
O=C(C1CCC(Cn2c(=S)[nH]c3ccccc3c2=O)CC1)N1CCN(c2ccccn2)CC1 (stereo unspecified) | ? | i | 18.4µM | i | i | i
COC(=O)C1CN(Cc2cn(Cc3ccc(OC)cc3)nn2)CCS(=O)(=O)N1Cc1ccc(F)cc1 (stereo unspecified) | nt | nt | nt | nt | nt | i
COC(CNC(=O)c1ccc2nc(-c3ccccc3)c(-c3ccccc3)nc2c1)OC | i | i | 16.4µM | i | i | i
COc1ccc(-c2nc3ccc(C(=O)NCC(OC)OC)cc3nc2-c2ccc(OC)cc2)cc1 | i | i | i | i | i | i
c1ccc2c(c1)CCc1ccccc1N2 | nt | nt | nt | nt | nt | i
Cc1ccccc1N(CC(=O)N/N=C/c1ccc(Cl)cc1)C(=O)c1ccccc1 | ? | i | 20.6µM | i | i | i
Cc1ccccc1N(CC(=O)N/N=C/c1ccc(F)cc1)C(=O)c1ccccc1 | i | i | i | i | i | i
CCCNC(=O)c1ccc(-n2c(-c3ccccc3)cc3c2CCC(C)C3)cc1 (stereo unspecified) | i | ? | ? | nt | 11.2µM | i
COCCNC(=O)c1ccc(-n2c(-c3ccccc3)cc3c2CCC(C)C3)cc1 (stereo unspecified) | i | i | i | nt | 10µM | i
COCCCNC(=O)C[C@@H]1C(=O)N2CCCC3=C2[C@@]1(C(=O)OC)CCCC3 | nt | nt | nt | nt | nt | i
COc1ccc(C(=O)O[C@@H]2CCC[C@@]3(C(=O)N(Cc4ccccc4)c4ccccc43)[C@H]2NC(=O)CCc2ccccc2)cc1OC | nt | nt | nt | nt | nt | i

Source: PubChem
